Source: paper PMC8665103 (Journal of medicinal chemistry, 2021)

Format: physicochemical
Conditions: DLS, 50 mM KPi pH 7.0, 1% DMSO; literature hits

In the case of `O=C1CCc2ccc(OCCCCN3CCN(c4cccc(Cl)c4Cl)CC3)cc2N1` [Aripiprazole], the “CAC (critical aggregation concentration)” value is reported as 19 µM.
